This passage reports IC50 results from patent publication US12037644B2, “Use of FGFR mutant gene panels in identifying cancer patients that will be responsive to treatment with an FGFR inhibitor” (Janssen Pharmaceutica NV, priority 2014, dated 2024).

What all share (settings): Rattus norvegicus, 72 h, read-out: Stimulated Proliferation (IC50)
For assay [1], the system named is RK3E-Transgene FGFR2. Briefly: Drug response testing (Cell Titer-Glo proliferation), RK3E FGFR2. A general note: Cellular ATP, detected with luciferase, serves as a proxy for viable cell number.
The subject of assay [2] is RK3E-Transgene AFF3 (FGFR fusion stably transfected RK3E cells). Put plainly: Drug response testing (Cell Titer-Glo proliferation), RK3E FGFR2:AFF3.
Assay [3] relates to RK3E-Transgene OFD1 (FGFR fusion stably transfected RK3E cells). Briefly: Drug response testing (Cell Titer-Glo proliferation), RK3E FGFR2:OFD1.
Assay [4] deals with RK3E-Transgene BICC1 (FGFR fusion stably transfected RK3E cells). Briefly: Drug response testing (Cell Titer-Glo proliferation), RK3E FGFR2:BICC1.
In assay [5] the test system is RK3E-Transgene CASP7 (FGFR fusion stably transfected RK3E cells). Put plainly: Drug response testing (Cell Titer-Glo proliferation), RK3E FGFR2:CASP7.
The subject of assay [6] is RK3E-Transgene CCDC6 (FGFR fusion stably transfected RK3E cells). Put plainly: Drug response testing (Cell Titer-Glo proliferation), RK3E FGFR2:CCDC6.

On to `COc1cc(CCc2cc(NC(=O)c3ccc(N4C[C@@H](C)N[C@@H](C)C4)cc3)n[nH]2)cc(OC)c1` [AZD4547, N-[5-[2-(3,5-Dimethoxyphenyl)ethyl]-2H-pyrazol-3-yl]-4-(3,5-diemthylpiperazin-1-yl)benzamide], for which the IC50 in assay [1] is 6500 nM; in assay [2] it was 2.81 nM; in assay [3], 7.26 nM; in assay [4], 6.45 nM; in assay [5] it was 4.11 nM; in assay [6] it was 13.4 nM.
